The results in this text go back to patent US11427593B2, “Bromodomain inhibitor compound and use thereof” (SHANGHAI INSTITUTE OF MATERIA MEDICA, CHINESE ACADEMY OF …, priority 2018, dated 2022).

SMILES strings stand for the structures. pIC50: −log10 of the molar value.

The target of the test is BRD4_BD1 (49-170) protein (Homo sapiens (Human), UniProt O60885). Description: AlphaScreen assay: inhibition of binding of BRD4 bromodomain BD1 to acetylated histone H4 polypeptide. The following applies: read-out: ALPHA IC50, BRD4 BD1 vs acetylated H4 polypeptide.

On to `Cc1cc(-c2cc(S(C)(=O)=O)ccc2OC2CCC(F)(F)CC2)n2cc[nH]c(=O)c12`, for which the negative-log IC50 (pIC50) was 7.38.
The result for `Cc1cc(-c2cc(NS(C)(=O)=O)ccc2OC2CCC(F)(F)CC2)n2cc[nH]c(=O)c12` reads 7.15.
